{
  "sequences": {"note": "Chains of the proteins cited; added tags and fusions are not shown.", "UniProt P31645, whole entry": "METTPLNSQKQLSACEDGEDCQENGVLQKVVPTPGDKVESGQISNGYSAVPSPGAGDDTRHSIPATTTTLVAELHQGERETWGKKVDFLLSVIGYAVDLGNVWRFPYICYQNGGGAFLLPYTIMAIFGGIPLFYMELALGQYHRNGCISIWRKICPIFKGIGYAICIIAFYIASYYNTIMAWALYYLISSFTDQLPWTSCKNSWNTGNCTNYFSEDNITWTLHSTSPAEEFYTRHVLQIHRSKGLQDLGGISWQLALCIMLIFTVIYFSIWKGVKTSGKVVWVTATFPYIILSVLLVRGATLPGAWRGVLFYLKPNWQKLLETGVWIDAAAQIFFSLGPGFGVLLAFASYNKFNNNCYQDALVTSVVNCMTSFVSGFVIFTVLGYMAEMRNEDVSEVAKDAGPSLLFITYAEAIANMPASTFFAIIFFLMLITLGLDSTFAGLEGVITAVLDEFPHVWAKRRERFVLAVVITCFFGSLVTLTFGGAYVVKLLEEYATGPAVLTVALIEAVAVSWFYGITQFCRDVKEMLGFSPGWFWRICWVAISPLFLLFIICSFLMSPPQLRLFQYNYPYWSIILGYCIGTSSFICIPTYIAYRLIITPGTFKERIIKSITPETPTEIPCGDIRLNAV"},
  "source": "patent US20250122164A1",
  "about": "“N,N-[…] ANALOGS FOR TREATING BRAIN DISORDERS” (The Regents of the University of California, priority 2021, published 2025)",
  "key": {"[1]": {"assay": "Body temperature assay (IR thermometer)", "assay_type": "in vivo, mice", "conditions": "50 mg/kg i.p., 30-minute time point", "description": "The head-twitch response assay was performed as described previously using both male and female C57BL/6J mice (3 each per treatment). The mice were obtained from Jackson Laboratory and were approximately 9 weeks old at the time of the experiments. Before injecting the mice, their baseline temperature was measured using an IR thermometer as described. Compounds were administered via intraperitoneal (i.p.) injection (5 ml kg-1) using 0.9% saline as the vehicle. Immediately after the animals were placed in an arena for 30-minutes where their locomotor activity was assessed using AnyMaze automated tracking software. The behavior was also videotaped and later scored by two blind overserves for head-twitch responses, the results were averaged. Upon completion of the novelty induced locomotion assay their temperature was measured at the 30-minute mark. The mice were then transferred to a holding cage with their other treatment matched cage mates and their temperature was measured at the 90 and 120-minute mark."}, "SERT": {"biological_target": "T1, SERT (Homo sapiens, UniProt P31645)", "T1 construct": "host or cells: HEK293T cells, transient transfection with Lipofectamine 3000", "assay": "SERT efflux: [3H]5-HT release from SERT expressing HEK293T cells", "assay_type": "cell-based", "conditions": "HEK293T cells transiently expressing SERT, 10 pM-100 uM", "description": "HEK293T cells were grown in Dulbecco's Modified Eagle Media (DMEM) supplemented with 10% fetal bovine serum (FBS) and 1% penicillin-streptomycin. 24 hours prior to the experiment, cells were plated in 24-well plates at a density of 150,000 cells/well and concurrently transfected using Lipofectamine 3000 according to the manufacturer's protocol. Cells were transfected with hSERT-N1-pEYFP (Addgene #70105) or a GFP control plasmid (Lonza pmaxGFP vector). The next day the wells were washed (1×500 μL) with 1× Hank's Balanced Salt Solution supplemented with 2 mM MgCl2 and 2 mM CaCl2 (HBSS) and the plate was placed on a 37° C. water bath for the remainder of the experiment. 250 μL of HBSS containing 10 nM 5-[1,2-3H[N]]-hydroxytryptamine creatinine sulfate (NET498001MC, Lot: 2902700) was added to the wells and incubated for 15 minutes, allowing uptake into SERT expressing HEK cells. Uptake was terminated by aspiration of wells followed by washes (3×500 μL) with HBSS. […] Radioactivity in the form of disintegrations per minute (DPM) was determined the following day with the use of a Beckman LS 6000 liquid scintillation counter. […] The GFP control cells were checked to ensure radioactivity was below background levels."}},
  "data": [
    {"substance": "R-3,4-Methylenedioxy methamphetamine [R-MDMA, reference compound]", "values": [
      {"measurement": "body temperature relative to vehicle", "setting": "[1]", "value": "significant decrease in temperature"},
      {"measurement": "[3H]5-HT release (efflux)", "setting": "SERT", "value": "the two highest concentration of 10 uM and 100 uM caused significant release of [^3H]5-HT"}
    ]}
  ]
}
